From patent publication US7615356B2, “Ion channel assay methods” (Vertex Pharmaceuticals (San Diego) LLC, priority 2000, dated 2009)

By UniProt entry, the sequences of proteins in these tests, tags left out.
UniProt P04775, whole entry, looked up: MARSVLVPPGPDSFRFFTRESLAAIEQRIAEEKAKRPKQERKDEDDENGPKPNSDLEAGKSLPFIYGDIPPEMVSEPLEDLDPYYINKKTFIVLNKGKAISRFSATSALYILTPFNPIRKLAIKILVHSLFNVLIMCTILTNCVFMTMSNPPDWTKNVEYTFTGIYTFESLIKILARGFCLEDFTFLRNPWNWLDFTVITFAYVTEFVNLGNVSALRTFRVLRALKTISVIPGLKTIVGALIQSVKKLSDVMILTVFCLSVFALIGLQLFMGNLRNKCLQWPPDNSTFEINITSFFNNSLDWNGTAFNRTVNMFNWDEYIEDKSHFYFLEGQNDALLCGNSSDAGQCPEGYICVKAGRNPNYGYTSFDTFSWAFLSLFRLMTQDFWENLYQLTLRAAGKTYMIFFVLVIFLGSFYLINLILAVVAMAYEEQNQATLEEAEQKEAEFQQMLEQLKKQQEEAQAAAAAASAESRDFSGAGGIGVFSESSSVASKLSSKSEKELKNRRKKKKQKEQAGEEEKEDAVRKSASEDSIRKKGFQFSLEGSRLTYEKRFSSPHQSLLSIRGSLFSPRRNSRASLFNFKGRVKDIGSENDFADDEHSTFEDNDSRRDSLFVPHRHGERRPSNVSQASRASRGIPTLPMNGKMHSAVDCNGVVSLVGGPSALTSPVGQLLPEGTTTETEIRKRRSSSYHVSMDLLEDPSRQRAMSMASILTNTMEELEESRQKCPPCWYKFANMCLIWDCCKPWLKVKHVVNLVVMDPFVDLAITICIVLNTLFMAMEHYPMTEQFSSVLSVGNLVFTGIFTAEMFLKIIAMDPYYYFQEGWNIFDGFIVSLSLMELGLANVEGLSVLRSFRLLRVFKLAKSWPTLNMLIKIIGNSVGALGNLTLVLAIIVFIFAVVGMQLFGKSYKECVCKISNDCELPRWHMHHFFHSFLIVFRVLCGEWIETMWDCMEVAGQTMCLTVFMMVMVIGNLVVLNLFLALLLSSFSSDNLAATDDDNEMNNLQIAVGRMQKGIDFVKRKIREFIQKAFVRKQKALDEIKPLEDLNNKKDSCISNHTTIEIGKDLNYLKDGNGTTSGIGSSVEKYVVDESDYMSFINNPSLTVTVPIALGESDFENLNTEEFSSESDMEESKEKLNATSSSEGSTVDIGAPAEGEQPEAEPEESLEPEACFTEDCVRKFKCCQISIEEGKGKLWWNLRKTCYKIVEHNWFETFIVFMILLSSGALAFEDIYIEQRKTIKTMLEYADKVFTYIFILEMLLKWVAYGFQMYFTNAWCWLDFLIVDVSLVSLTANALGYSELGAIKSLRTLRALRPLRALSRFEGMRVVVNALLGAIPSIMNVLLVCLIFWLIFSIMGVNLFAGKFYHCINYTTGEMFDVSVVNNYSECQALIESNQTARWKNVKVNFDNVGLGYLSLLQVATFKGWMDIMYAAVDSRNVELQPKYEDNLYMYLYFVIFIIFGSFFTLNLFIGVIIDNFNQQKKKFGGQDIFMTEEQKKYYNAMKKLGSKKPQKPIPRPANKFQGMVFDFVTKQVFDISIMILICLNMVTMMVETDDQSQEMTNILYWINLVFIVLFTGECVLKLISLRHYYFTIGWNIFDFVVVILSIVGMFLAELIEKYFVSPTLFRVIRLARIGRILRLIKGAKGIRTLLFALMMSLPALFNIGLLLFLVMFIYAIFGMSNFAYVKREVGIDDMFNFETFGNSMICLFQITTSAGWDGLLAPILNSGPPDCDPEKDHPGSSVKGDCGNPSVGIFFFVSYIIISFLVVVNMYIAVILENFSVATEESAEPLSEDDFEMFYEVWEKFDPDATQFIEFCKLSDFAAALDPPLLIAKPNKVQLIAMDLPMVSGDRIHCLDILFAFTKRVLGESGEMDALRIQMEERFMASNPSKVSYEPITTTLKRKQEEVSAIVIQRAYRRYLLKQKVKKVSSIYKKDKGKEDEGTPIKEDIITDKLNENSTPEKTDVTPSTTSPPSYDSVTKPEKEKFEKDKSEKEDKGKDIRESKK
UniProt A0A8C2MK62, entry or part of it: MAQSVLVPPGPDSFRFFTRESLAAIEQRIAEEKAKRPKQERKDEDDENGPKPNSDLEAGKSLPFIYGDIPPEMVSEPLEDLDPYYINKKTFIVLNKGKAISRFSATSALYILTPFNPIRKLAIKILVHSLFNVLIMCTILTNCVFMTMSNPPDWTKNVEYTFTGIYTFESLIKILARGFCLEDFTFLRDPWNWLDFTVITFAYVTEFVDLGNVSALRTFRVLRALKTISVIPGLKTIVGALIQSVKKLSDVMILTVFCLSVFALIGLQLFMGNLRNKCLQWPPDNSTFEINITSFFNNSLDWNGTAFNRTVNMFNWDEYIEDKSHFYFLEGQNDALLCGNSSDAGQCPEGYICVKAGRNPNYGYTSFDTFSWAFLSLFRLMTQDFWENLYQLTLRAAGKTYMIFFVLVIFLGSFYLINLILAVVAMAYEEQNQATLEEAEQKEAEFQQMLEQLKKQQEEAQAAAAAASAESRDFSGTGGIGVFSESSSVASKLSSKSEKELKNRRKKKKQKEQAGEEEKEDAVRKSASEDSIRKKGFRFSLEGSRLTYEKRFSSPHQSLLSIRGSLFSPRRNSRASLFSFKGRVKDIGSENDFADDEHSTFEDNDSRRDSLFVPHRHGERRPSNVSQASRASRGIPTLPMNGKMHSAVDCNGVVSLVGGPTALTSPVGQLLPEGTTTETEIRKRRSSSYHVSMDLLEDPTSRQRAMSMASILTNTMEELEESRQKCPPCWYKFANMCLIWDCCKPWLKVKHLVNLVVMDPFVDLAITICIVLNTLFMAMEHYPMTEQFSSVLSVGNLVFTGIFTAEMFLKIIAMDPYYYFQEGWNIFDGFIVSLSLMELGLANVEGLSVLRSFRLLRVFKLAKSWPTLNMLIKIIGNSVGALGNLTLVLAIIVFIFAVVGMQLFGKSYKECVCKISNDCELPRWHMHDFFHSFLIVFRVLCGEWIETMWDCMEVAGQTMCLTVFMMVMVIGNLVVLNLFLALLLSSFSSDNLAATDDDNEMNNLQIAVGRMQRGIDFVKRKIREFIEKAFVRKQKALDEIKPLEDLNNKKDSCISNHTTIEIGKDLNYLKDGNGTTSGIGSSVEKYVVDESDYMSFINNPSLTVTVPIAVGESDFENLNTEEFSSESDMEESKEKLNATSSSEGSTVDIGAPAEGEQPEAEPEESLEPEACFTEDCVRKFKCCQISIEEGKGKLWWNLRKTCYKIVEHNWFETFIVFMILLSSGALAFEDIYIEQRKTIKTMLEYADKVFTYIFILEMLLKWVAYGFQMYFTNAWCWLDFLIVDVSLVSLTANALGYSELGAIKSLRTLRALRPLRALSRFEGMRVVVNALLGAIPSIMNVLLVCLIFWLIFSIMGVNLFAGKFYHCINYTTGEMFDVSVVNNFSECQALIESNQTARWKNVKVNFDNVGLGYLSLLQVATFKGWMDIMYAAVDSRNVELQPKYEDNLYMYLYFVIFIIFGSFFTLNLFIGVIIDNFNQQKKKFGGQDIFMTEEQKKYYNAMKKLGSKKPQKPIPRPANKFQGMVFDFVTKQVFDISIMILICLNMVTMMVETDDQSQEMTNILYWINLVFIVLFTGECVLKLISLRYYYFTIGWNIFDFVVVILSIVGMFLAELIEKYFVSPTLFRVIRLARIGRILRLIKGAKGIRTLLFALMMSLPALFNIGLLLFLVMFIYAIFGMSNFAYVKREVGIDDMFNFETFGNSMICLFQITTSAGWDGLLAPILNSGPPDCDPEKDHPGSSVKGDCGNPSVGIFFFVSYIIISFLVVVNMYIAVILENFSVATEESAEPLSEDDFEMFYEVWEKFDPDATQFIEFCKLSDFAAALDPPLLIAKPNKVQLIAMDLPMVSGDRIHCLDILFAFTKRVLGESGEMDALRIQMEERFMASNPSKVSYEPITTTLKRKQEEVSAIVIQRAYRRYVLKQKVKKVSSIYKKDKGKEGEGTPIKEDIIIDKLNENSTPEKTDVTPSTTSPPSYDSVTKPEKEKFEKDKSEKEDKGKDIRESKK

Key:
[1] = target: rat brain type IIa sodium channel (Rattus norvegicus, UniProt P04775); conditions: read-out: reported value (EC50); cited from earlier work
[2] = target: endogenous NaV channels of Chinese Hamster Ovary cells (Nav 1.2a) (Cricetulus griseus, UniProt A0A8C2MK62); test: Use-dependent block, repetitive electrical stimulation at 1 Hz, CHO cells; format: cell-based

Row | Structure (SMILES) | EC50 [1] | Hill coeff. @ 1st peak [2] | Hill coeff. @ 20th peak [2] | UDI (1 Hz), ratio of IC50(1st response) over IC50(20th response) [2] | use-dependent block of endogenous NaV channels [2]
1 | NC1=N[C@H](O)[C@H]2[C@H]3O[C@]4(O)O[C@@H]([C@@H](O)[C@@]2(N1)[C@@H]4O)[C@]3(O)CO [TTX, tetrodotoxin] | 8 nM |  |  |  | 
2 | COc1ccc(CCN2CCC(Nc3nc4ccccc4n3Cc3ccc(F)cc3)CC2)cc1 [astemizole] |  | 2.67 | 1.79 | 2.25 | decreased ratio of last peak response over first peak response
